# AlphaSeq binding of Ab-14 heavy chain variants to a spike HR2 peptide

Data: MIT Lincoln Laboratory AlphaSeq set, Engelhart et al. 2022, doi:10.1038/s41597-022-01779-4, as distributed in FLAb.

Target: peptide PDVDLGDISGINAS, taken from heptad repeat 2 (HR2) of SARS-CoV-2 spike.

Each scFv is VH, a 15-residue (Gly4Ser)3 linker, VL, as in the parent Ab-14, and differs from it in the CDRs of the heavy chain only.
VH: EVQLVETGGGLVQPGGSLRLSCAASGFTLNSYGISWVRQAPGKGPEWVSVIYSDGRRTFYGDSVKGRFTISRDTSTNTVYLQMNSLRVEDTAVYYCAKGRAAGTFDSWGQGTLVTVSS
VL: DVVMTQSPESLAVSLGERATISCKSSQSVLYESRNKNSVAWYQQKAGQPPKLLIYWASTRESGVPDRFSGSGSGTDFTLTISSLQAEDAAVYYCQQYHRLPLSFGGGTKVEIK

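Phage display of a naive human antibody library on the peptide gave the parent. Library AAYL49 holds single substitutions and randomly drawn double and triple substitutions in the CDRs. The scFvs were displayed on barcoded MATa yeast, the peptide on MATalpha yeast. Pairs that bind mate more often; barcode pairs of the diploids are counted by sequencing. Read counts were normalised to the haploid input and turned into Kd by a linear fit to BCL2-family pairs of known affinity, for each replicate. Each pool was mated in three replicate cultures.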

Each variant is given by its three heavy chain CDRs, as the data file delimits them; those of the parent are GFTLNSYGIS, VIYSDGRRTFYGDSVK, GRAAGTFDS. This list gathers variants with a substitution at N30 (VH, numbered from residue 1). Values are apparent Kd, the geometric mean of the replicates that gave a signal; lower means stronger binding. "not detected" marks a missing value. The strain was present, yet no cells mated with the target were sequenced in any replicate, which points to weak or no binding. As a blank, each scFv also met three strains without target: over library AAYL49, 15% of these pairings were detected, typically at 11 µM and seldom below 680 nM. For reference, the parent read 4.4 nM as the reference entry and 13 µM (one replicate of three) as a member of this library.

CDR-H1	CDR-H2	CDR-H3	Kd (apparent)	seen in
GFTLYSYGIS	VIYSDGRRTFYGDSVK	GRGAGTFDS	380 nM	3 of 3
GFTLDSYGIS	VIYSDGRRTFYGDSRI	GRAAGTFDS	not detected	0 of 3
GFTLASYGDS	VIYSDGRRTFYGDSVK	GRRAGTFDS	7.0 µM	2 of 3
GFWLASYGIS	VIYSDGRETFYGDSVK	GRAAGTFDS	880 nM	1 of 3
GFTLYSYGGS	VIYSDGRRTFSGDSVK	GRAAGTFDS	2.3 µM	2 of 3
GFTLLSYGIS	VIYSDGRRTFYGDSVS	GRAAGYFDS	200 nM	3 of 3
GVTLISYGIS	VIYSDGRRTFYGDSVK	GRAAGTFDS	not detected	0 of 3
GFTLESYGIH	VIYSDGRRTFYGPSVK	GRAAGTFDS	19 nM	3 of 3
GFTLTSYGIS	VIYSDGRNTFYGDSVK	GRAAGTFDS	480 nM	2 of 3
GFTLRSYGIS	CIYSDGRRTFYGDSVK	GKAAGTFDS	not detected	0 of 3
GFTLGSYGIS	VIYSDGRRTFYGDMVK	VRAAGTFDS	22 µM	1 of 3
GFTLRSYGIS	VIYSDGRRTFYHDSVK	GRAYGTFDS	1.8 µM	2 of 3
GFTLPSYGIS	VQYSDGRRTFYWDSVK	GRAAGTFDS	not detected	0 of 3
GFTLTSYGQS	VIYSDGRRTFYGDSHK	GRAAGTFDS	not detected	0 of 3
GFTLFLYGIS	VIYSYGRRTFYGDSVK	GRAAGTFDS	not detected	0 of 3
GFTLQSYGIS	VIYSDKRRTFYGDGVK	GRAAGTFDS	8.1 µM	1 of 3
GFTLDSYGIS	VIYSKGRSTFYGDSVK	GRAAGTFDS	1.7 µM	1 of 3
GFTLMSYGIS	VIYSDGRRTFYGDSVK	GAAAGTFDS	15 nM	3 of 3
GFTLWSYGIS	VIYSSGRRTFYGDSVK	GRAAGTFDS	not detected	0 of 3
GFTLRSYGIS	VIYSDGRRTFYGDSVK	FRAAGTFDS	35 nM	3 of 3
GFCLTSYGIS	VIYSDGHRTFYGDSVK	GRAAGTFDS	60 nM	3 of 3
GFTLVSYGIS	VIYSDGRRTFYGDSVK	GRAAGTFFS	74 nM	3 of 3
GFTLQSYGIS	VIYSDGRRTFYGDSPK	RRAAGTFDS	54 µM	1 of 3
GMTLQSYGIS	VIYSDGRRTFPGDSVK	GRAAGTFDS	8.8 µM	2 of 3
GFTLDSYGIS	VIYSDGRRTFYGDSVK	RRAAGTFDS	7.9 nM	3 of 3
GFTLMSYGIS	VIRSDGRRTFYMDSVK	GRAAGTFDS	not detected	0 of 3
GFTLDSYGIS	VIYSDGRRTWYGDSVK	GRAAGTFVS	47 nM	3 of 3
GFTLFSYNIS	VIYSDGRRTFYGDSVK	GRAAGTFDS	65 µM	2 of 3
GKTLRSYGIS	VIYSDGRRTFYGMSVK	GRAAGTFDS	4.7 µM	1 of 3
GFTLGSYGIS	VIYSDGRRQFYGDSVK	IRAAGTFDS	94 nM	1 of 3
GFTLMSYGIS	VDYSDGRRTFYGDSVK	VRAAGTFDS	86 µM	2 of 3
GFTLKSYGIS	VIYFDGRRTFYGDSVK	GRAAGTFDS	1.4 µM	1 of 3
GFTLKSYGIV	VIYSDGRRTFYGDSVK	GGAAGTFDS	14 µM	2 of 3
GFTLQSYGIS	VIYSDGWRTFYGDSVK	GRAAGTFYS	110 µM	1 of 3
GFTSSSYGIS	VSYSDGRRTFYGDSVK	GRAAGTFDS	not detected	0 of 3
GFTLSSYGIS	CIYSDGRRTFYGDSVN	GRAAGTFDS	3.6 µM	3 of 3
GFTLKSYGIS	VIYSDGRRTFYGDSVK	KRAAGTADS	not detected	0 of 3
GFTLQSYGIS	VIYSFGRRTFYGDSGK	GRAAGTFDS	93 µM	1 of 3
GFTLISYGIS	VIYSDGRRTFYGDSVK	GPAAPTFDS	not detected	0 of 3
GFTLVSYGIS	VIYSDGRRTFYGDSVK	GRSAGTFDL	280 nM	3 of 3
GFTLDSYGIS	VIYSDGRRTFYGDSVK	GRAAGTGDS	9.5 µM	1 of 3
GFTLRSYPIS	VIYSGGRRTFYGDSVK	GRAAGTFDS	not detected	0 of 3
GFTLPSYGIS	VCYSDGRRTFYGDSVK	GRAAGKFDS	43 µM	1 of 3
GFTLVSYLIV	VIYSDGRRTFYGDSVK	GRAAGTFDS	1.7 µM	1 of 3
DFTLGSYGIS	VIYSDGRRTFYRDSVK	GRAAGTFDS	1.3 µM	2 of 3
GFTLPSYGIS	VIYSDNRRTFYGDKVK	GRAAGTFDS	36 µM	1 of 3
GFTLMSYGIS	VIYSDGFRTFYGDSVK	GRAAGTFDS	23 µM	2 of 3
GFTLSSYGIS	VIYSSGRRTFYGDSVK	GRAAGTFLS	850 nM	1 of 3
GFTLQLYGIS	VIYSDGRRCFYGDSVK	GRAAGTFDS	1.1 mM	1 of 3
GFTLLCYGIS	VIYSDGRRTFYGDSVK	GRAAGTFDS	not detected	0 of 3
GGTLVSYGIS	VPYSDGRRTFYGDSVK	GRAAGTFDS	not detected	0 of 3
GFTLFSYEIS	VIYSQGRRTFYGDSVK	GRAAGTFDS	1.3 µM	1 of 3
GFTLFSYGIS	VIYSDSRRTFYGDSVE	GRAAGTFDS	not detected	0 of 3
GFTLFSYGIS	VIYSDGRRTFYGDSVK	GRAAGVFDC	82 nM	3 of 3
GFTLCSYGIS	VIYSDGRRTFYGDSPK	GRAAGCFDS	not detected	0 of 3
GFTLESYGIS	VIYSDGRRMFYGDSVK	GRAAITFDS	not detected	0 of 3
GFTLYSYGIS	VIYSDGRHTFYGDSVK	GRAAGTFDS	7.4 µM	2 of 3
GFTLMSYGIS	VIYSDGRRTFYGDSVW	GRAAGTFWS	4.0 µM	3 of 3
GFTLKSYGIS	VIYSDGRRVFYGDSVK	GRACGTFDS	450 nM	3 of 3
GFTLESYGIS	VIYSDGRRTFYQDSVK	GRTAGTFDS	80 nM	3 of 3
GFTLWAYGIS	VIYSDGRRTFYGDSVK	GRAAPTFDS	not detected	0 of 3

Repeated from above, the 9 best binders with a signal in all replicates:

CDR-H1	CDR-H2	CDR-H3	Kd (apparent)	seen in
GFTLDSYGIS	VIYSDGRRTFYGDSVK	RRAAGTFDS	7.9 nM	3 of 3
GFTLMSYGIS	VIYSDGRRTFYGDSVK	GAAAGTFDS	15 nM	3 of 3
GFTLESYGIH	VIYSDGRRTFYGPSVK	GRAAGTFDS	19 nM	3 of 3
GFTLRSYGIS	VIYSDGRRTFYGDSVK	FRAAGTFDS	35 nM	3 of 3
GFTLDSYGIS	VIYSDGRRTWYGDSVK	GRAAGTFVS	47 nM	3 of 3
GFCLTSYGIS	VIYSDGHRTFYGDSVK	GRAAGTFDS	60 nM	3 of 3
GFTLVSYGIS	VIYSDGRRTFYGDSVK	GRAAGTFFS	74 nM	3 of 3
GFTLESYGIS	VIYSDGRRTFYQDSVK	GRTAGTFDS	80 nM	3 of 3
GFTLFSYGIS	VIYSDGRRTFYGDSVK	GRAAGVFDC	82 nM	3 of 3